Experimental data taken from patent US10004748B2, “Methods of treating PR-positive, luminal A breast cancer with PI3K inhibitor, pictilisib” (Genentech, Inc., priority 2014, dated 2018).

Tested on: advanced or metastatic ER+ breast cancer (MBC)
Conditions: for Hazard Ratio (PFS): GDC-0941 vs placebo, both on fulvestrant; for PFS hazard ratio (95% CI), stratified analysis: endocrine resistance

Structure (SMILES): CS(=O)(=O)N1CCN(Cc2cc3nc(-c4cccc5[nH]ncc45)nc(N4CCOCC4)c3s2)CC1 [GDC-0941, 4-(2-(1H-indazol-4-yl)-6-((4-(methylsulfonyl)piperazin-1-yl)methyl)thieno[3,2-d]pyrimidin-4-yl)morpholine]
- Hazard Ratio (PFS) (All Patients (ITT), unstratified): 0.77
- Hazard Ratio (PFS) (Baseline ECOG Score 0): 0.56
- Hazard Ratio (PFS) (Baseline ECOG Score 1): 1.41
- Hazard Ratio (PFS) (Bone Only Non-Measureable Disease at Baseline No): 0.94
- Hazard Ratio (PFS) (Bone Only Non-Measureable Disease at Baseline Yes): 0.23
- PFS hazard ratio (95% CI), stratified analysis (ITT, stratified by PIK3CA mut, measurable disease): 0.73 (0.45, 1.16)
- PFS hazard ratio (95% CI), stratified analysis (ITT, stratified by PIK3CA mut, measurable disease, age, ECOG, BOLERO resistance, bone-only, visceral disease, last therapy setting, metastatic chemo): 0.59 (0.19, 1.87)
- PFS hazard ratio (95% CI), stratified analysis (ITT, stratified by PIK3CA mutation, visceral disease): 0.62 (0.39, 1)
- PFS hazard ratio (95% CI), stratified analysis (ITT, stratified by PIK3CA mutation, visceral disease, PR status, Luminal A/B): 0.55 (0.29, 1.05)
- PFS hazard ratio (95% CI), stratified analysis (Luminal A, stratified by PIK3CA mut, measurable disease): 0.56 (0.28, 1.13)
- PFS hazard ratio (95% CI), stratified analysis (Luminal A, stratified by PIK3CA mut, measurable disease, age, ECOG, BOLERO resistance, bone-only, visceral disease, last therapy setting, metastatic chemo): 0.41 (0.1, 1.64)
- PFS hazard ratio (95% CI), stratified analysis (Luminal A, stratified by PIK3CA mutation, visceral disease): 0.54 (0.27, 1.06)
- PFS hazard ratio (95% CI), stratified analysis (Luminal A, stratified by PIK3CA mutation, visceral disease, PR status, Luminal A/B): 0.45 (0.22, 0.93)
- Hazard Ratio (PFS) (Measurable Disease at Baseline (Derived) No): 0.45
- Hazard Ratio (PFS) (Measurable Disease at Baseline (Derived) Yes): 1.11
- Hazard Ratio (PFS) (Num of Previous Therapies in Metastatic Setting 0): 0.46
- Hazard Ratio (PFS) (Num of Previous Therapies in Metastatic Setting 1): 1.11
- Hazard Ratio (PFS) (Num of Previous Therapies in Metastatic Setting 2): 0.88
- Hazard Ratio (PFS) (Num of Previous Therapies in Metastatic Setting 3+): 0.55
- Hazard Ratio (PFS) (PIK3CA Helical Domain Mutation Status Positive): 1.16
- Hazard Ratio (PFS) (PIK3CA Helical Domain Mutation Status Unknown): 1.17
- Hazard Ratio (PFS) (PIK3CA Helical Domain Mutation Status Wild Type): 0.64
- Hazard Ratio (PFS) (PIK3CA Kinase Domain Mutation Status Positive): 0.68
- Hazard Ratio (PFS) (PIK3CA Kinase Domain Mutation Status Unknown): 1.95
- Hazard Ratio (PFS) (PIK3CA Kinase Domain Mutation Status Wild Type): 0.80
- Hazard Ratio (PFS) (PIK3CA Mutation Status Positive): 0.92
- Hazard Ratio (PFS) (PIK3CA Mutation Status Unknown): 1.31
- Hazard Ratio (PFS) (PIK3CA Mutation Status Wild Type): 0.64
- Hazard Ratio (PFS) (PR Status Negative): 1.40
- Hazard Ratio (PFS) (PR Status Positive (n=116), unstratified): 0.45
- Hazard Ratio (PFS) (PR Status Unknown): 7.21
- PFS hazard ratio (95% CI), stratified analysis (PR-positive, stratified by PIK3CA mut, measurable disease): 0.48 (0.26, 0.87)
- PFS hazard ratio (95% CI), stratified analysis (PR-positive, stratified by PIK3CA mut, measurable disease, age, ECOG, BOLERO resistance, bone-only, visceral disease, last therapy setting, metastatic chemo): 0.33 (0.06, 1.69)
- PFS hazard ratio (95% CI), stratified analysis (PR-positive, stratified by PIK3CA mutation, visceral disease): 0.38 (0.2, 0.72)
- PFS hazard ratio (95% CI), stratified analysis (PR-positive, stratified by PIK3CA mutation, visceral disease, PR status, Luminal A/B): 0.42 (0.2, 0.87)
- Hazard Ratio (PFS) (Primary Resistance (Derived)): 0.71
- Hazard Ratio (PFS) (Primary/Secondary Resistance Unknown): >999.99
- Hazard Ratio (PFS) (Received Prior Adjuvant/Neo-Adjuvant Therapy No): 1.33
- Hazard Ratio (PFS) (Received Prior Adjuvant/Neo-Adjuvant Therapy Yes): 0.66
- Hazard Ratio (PFS) (Secondary Resistance (Derived)): 0.75
- Hazard Ratio (PFS) (Visceral Disease No): 0.69
- Hazard Ratio (PFS) (Visceral Disease Yes): 0.68

Read-outs that look alike come from different tables or passages of the source.
